Laboratory results: ChEMBL document CHEMBL3259625 (ACS Med Chem Lett, 2014)

The chains behind the UniProt entries cited, without tags or fusion partners.
UniProt P08684, whole entry: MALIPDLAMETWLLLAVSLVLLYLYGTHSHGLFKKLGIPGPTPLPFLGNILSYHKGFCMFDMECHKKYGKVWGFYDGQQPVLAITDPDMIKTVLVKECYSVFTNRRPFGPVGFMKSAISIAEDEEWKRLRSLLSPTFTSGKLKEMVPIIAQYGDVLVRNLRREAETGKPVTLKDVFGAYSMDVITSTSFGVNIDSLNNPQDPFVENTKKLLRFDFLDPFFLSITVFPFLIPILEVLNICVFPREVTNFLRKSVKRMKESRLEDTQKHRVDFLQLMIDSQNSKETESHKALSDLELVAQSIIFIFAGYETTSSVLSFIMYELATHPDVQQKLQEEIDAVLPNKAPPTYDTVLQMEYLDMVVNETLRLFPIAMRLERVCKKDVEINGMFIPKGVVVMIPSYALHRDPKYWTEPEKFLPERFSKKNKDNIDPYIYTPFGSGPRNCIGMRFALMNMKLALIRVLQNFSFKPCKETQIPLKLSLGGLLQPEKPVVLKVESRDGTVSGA
UniProt P10635, whole entry: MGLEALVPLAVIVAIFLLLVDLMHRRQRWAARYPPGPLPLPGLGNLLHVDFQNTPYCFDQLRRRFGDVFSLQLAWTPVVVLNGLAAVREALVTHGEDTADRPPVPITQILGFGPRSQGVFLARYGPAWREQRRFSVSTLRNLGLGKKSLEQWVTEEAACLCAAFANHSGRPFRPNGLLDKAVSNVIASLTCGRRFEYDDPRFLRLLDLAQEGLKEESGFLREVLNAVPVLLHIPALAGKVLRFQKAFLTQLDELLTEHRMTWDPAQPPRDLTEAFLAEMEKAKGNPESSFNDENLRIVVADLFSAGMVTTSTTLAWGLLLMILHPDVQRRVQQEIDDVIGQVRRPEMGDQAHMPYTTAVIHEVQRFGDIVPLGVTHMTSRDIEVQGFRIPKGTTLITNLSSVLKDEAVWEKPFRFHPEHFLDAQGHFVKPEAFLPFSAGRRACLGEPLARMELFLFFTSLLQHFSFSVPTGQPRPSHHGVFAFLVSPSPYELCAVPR
UniProt P11712, whole entry: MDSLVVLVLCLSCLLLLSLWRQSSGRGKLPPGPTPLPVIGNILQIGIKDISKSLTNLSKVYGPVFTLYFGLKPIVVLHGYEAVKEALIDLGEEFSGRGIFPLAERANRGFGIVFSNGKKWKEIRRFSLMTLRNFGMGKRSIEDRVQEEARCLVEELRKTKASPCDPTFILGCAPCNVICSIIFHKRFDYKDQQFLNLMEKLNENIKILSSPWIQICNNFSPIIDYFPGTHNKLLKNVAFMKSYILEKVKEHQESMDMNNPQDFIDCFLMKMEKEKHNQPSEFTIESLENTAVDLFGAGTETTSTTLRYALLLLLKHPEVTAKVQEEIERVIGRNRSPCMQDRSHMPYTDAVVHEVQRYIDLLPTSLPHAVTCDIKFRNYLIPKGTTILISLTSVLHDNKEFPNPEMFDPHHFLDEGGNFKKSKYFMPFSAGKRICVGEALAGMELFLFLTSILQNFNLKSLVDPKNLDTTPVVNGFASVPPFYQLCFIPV
UniProt P05177, whole entry: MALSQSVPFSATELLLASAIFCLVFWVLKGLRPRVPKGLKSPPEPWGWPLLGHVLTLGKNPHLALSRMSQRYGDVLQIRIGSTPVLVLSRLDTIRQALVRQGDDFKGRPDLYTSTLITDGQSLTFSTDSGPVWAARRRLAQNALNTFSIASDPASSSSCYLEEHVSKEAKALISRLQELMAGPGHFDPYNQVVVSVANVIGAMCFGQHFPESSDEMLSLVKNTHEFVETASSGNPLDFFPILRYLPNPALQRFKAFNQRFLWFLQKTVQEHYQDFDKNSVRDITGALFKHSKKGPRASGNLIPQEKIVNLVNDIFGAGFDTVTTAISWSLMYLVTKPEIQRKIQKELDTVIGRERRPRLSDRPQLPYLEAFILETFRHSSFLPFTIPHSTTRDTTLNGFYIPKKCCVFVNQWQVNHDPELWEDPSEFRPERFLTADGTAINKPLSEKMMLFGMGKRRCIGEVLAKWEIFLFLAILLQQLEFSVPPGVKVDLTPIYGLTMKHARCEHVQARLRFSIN

What was measured:
Type in all cases: ADME
Cytochrome P450 3A4 = Cytochrome P450 3A4 (Homo sapiens, UniProt P08684); assay: Inhibition of CYP3A4 in human liver microsomes assessed as midazolam hydroxylation to 1'-hydroxymidazolam at 1 uM after 10 mins in presence of NADPH
Cytochrome P450 2D6 = Cytochrome P450 2D6 (Homo sapiens, UniProt P10635); assay: Inhibition of CYP2D6 in human liver microsomes assessed as bufuralol hydroxylation to 4'-hydroxybufuralol at 1 uM after 10 mins in presence of NADPH
Cytochrome P450 2C9 = Cytochrome P450 2C9 (Homo sapiens, UniProt P11712); assay: Inhibition of CYP2C9 in human liver microsomes assessed as tolbutamide hydroxylation to hydroxytolbutamide at 1 uM after 10 mins in presence of NADPH
Cytochrome P450 1A2 = Cytochrome P450 1A2 (Homo sapiens, UniProt P05177); assay: Inhibition of CYP1A2 in human liver microsomes assessed as phenacetin […] to acetaminophen at 1 uM after 10 mins in presence of NADPH

inhibition (INH) (Cytochrome P450 3A4) [%]	inhibition (INH) (Cytochrome P450 2D6) [%]	inhibition (INH) (Cytochrome P450 2C9) [%]	inhibition (INH) (Cytochrome P450 1A2) [%]	SMILES
60	30	91	14	O=C(N[C@H](Cc1c[nH]c2ccccc12)C(=O)Nc1ccncc1)c1ccc(-c2cccc(F)c2)cc1F
48	48	90	-21	O=C(N[C@H](Cc1c[nH]c2ccccc12)C(=O)Nc1ccncc1)c1ccc(-c2ccc(F)c(F)c2)cc1F
